From patent publication US20150044245A1, “PARTIAL MHC CONSTRUCTS AND METHODS OF USE” (Oregon Health & Science University, priority 2012, published 2015) come the findings set out here.

In this experiment the target is CD74 (MHC class II invariant chain) of DR*1501-Tg mouse splenocytes and monocytes (mouse) (UniProt P04441). Nature of the experiment: direct saturation binding of FITC-labeled construct to CD74 immuno-adsorbed on Protein L/ln-1 beads; SDS-PAGE densitometry; one-site fit.

One may read the Kd as the free concentration of one partner at which half of the binding sites on the other are occupied at equilibrium, for simple one-to-one binding. Higher therefore signals lower affinity. RTL1000 (pDR2/hMOG-35-55) (peptide-MHC) registered a Kd of 4.47 nM.
